Tests used:
[1] = molecular target: human AR (androgen receptor) (Homo sapiens, UniProt P10275); assay: Steroid hormone nuclear receptor binding assay, AR binding; details: read-out: AR binding Ki; average of n trials
[2] = molecular target: human androgen receptor (AR) (Homo sapiens, UniProt P10275); assay: C2C12 AR/ARE reporter assay; assay type: cell-based; details: read-out: C2C12 EC50, average of n trials

Chains of the proteins cited; added tags and fusions are not shown. Lines headed by an entry give the natural chain unless they say otherwise; changes in a name come on top.
UniProt P10275: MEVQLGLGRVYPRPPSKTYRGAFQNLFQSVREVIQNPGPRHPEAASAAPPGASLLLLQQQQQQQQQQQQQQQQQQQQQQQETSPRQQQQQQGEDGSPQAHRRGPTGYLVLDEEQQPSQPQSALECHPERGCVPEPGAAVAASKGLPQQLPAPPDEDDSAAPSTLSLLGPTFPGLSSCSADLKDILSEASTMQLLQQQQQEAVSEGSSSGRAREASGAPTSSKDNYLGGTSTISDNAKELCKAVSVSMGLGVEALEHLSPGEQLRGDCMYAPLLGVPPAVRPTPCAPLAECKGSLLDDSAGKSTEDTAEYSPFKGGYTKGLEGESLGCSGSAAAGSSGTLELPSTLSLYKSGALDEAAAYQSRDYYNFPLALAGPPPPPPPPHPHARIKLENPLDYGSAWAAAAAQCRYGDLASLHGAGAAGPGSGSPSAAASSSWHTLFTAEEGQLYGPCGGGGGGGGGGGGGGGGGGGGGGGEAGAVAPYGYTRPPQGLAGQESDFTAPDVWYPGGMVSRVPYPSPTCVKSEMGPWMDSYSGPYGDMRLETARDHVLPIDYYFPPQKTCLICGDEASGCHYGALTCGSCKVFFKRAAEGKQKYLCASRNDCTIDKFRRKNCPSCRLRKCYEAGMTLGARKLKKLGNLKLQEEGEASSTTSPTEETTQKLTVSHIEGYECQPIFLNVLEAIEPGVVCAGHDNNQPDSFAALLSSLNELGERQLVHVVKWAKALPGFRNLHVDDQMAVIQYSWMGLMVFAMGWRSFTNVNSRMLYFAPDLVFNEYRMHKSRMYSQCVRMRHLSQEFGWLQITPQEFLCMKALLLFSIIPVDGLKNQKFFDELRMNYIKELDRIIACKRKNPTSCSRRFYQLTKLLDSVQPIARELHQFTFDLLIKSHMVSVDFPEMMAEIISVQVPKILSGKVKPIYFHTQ

| SMILES | Ki [1] | EC50 [2] |
| --- | --- | --- |
| CC(C)C(=O)NC1CCc2c(c3ccc(Cl)cc3n2Cc2cccc(F)c2)C1 (centres unmarked) [Example 56] | 0.0038 µM | 0.054 µM |
| CC(C)C(=O)NC1CCc2c(c3cc(Cl)ccc3n2Cc2ccc(F)cc2)C1 (centres unmarked) [Example 25] | 0.006 µM | 0.121 µM |
| COc1ccc(Cn2c3c(c4cc(OC)ccc42)CC(NC(=O)C(C)C)CC3)cc1 (centres unmarked) [Example 74] | 0.859 µM | 0.764 µM |
| CC(C)C(=O)NC1CCc2c(c3cc(Cl)ccc3n2Cc2ccccc2)C1 (centres unmarked) [Example 16] | 0.0019 µM | 0.0055 µM |
| CC(C)C(=O)NC1CCc2c(c3cc(Cl)ccc3n2Cc2cccc(F)c2)C1 (centres unmarked) [Example 21] | 0.002 µM | 0.0201 µM |
| CC(C)C(=O)NC1CCc2c(c3cc(F)ccc3n2Cc2ccccc2F)C1 (centres unmarked) [Example 4] | 0.0366 µM |  |
| COc1cccc(Cn2c3c(c4cc(Cl)ccc42)CC(NC(=O)C(C)C)CC3)c1 (centres unmarked) [Example 23] | 0.0043 µM | 0.157 µM |
| CC(C)C(=O)NC1CCc2c(c3cc(C#N)ccc3n2Cc2cccc(F)c2)C1 (centres unmarked) [Example 51, N-(6-cyano-9-(3-fluorobenzyl)-2,3,4,9-tetrahydro-1H-carbazol-3-yl)isobutyramide] | 0.0015 µM | 0.0006 µM |
| COc1ccc2c(c1)c1c(n2Cc2ccccc2OC)CCC(NC(=O)C(C)C)C1 (centres unmarked) [Example 72] | 0.153 µM | 0.685 µM |
| COC(=O)c1cccc(Cn2c3c(c4cc(Cl)ccc42)CC(NC(=O)C(C)C)CC3)c1 (centres unmarked) [Example 84] | 0.0197 µM |  |
| COc1ccccc1Cn1c2c(c3cc(Br)ccc31)CC(NC(=O)C(C)C)CC2 (centres unmarked) [Example 34] | 0.0249 µM | 0.185 µM |
| CC(C)C(=O)NC1CCc2c(c3cc(Br)ccc3n2Cc2ccccc2)C1 (centres unmarked) [Example 30] | 0.0021 µM | 0.0031 µM |
| CC(C)C(=O)NC1CCc2c(c3cc(C#N)ccc3n2Cc2cccc([N+](=O)[O-])c2)C1 (centres unmarked) [Example 88, N-[6-cyano-9-(3-nitro-benzyl)2,3,4,9-tetrahydro-1H-carbazol-3-yl]-isobutyramide] | 0.0044 µM | 0.0243 µM |
| CC(C)C(=O)NC1CCc2c(c3cc(Br)ccc3n2Cc2ccccc2Cl)C1 (centres unmarked) [Example 32] | 0.0103 µM | 0.0533 µM |
| CC(C)C(=O)NC1CCc2c(c3cc(Cl)ccc3n2Cc2cccc(C#N)c2)C1 (centres unmarked) [Example 24] | 0.0082 µM | 0.305 µM |
| COc1cccc(Cn2c3c(c4cc(F)ccc42)CC(NC(=O)C(C)C)CC3)c1 (centres unmarked) [Example 10] | 0.0319 µM | 0.193 µM |
| COc1ccc2c(c1)c1c(n2Cc2ccc(F)cc2)CCC(NC(=O)C(C)C)C1 (centres unmarked) [Example 80] | 0.098 µM | 0.108 µM |
| CC(C)C(=O)NC1CCc2c(c3cccc(F)c3n2Cc2cccc(F)c2)C1 (centres unmarked) [Example 58] | 0.0072 µM | 0.258 µM |
| CC(C)C(=O)NC1CCc2c(c3cc(Cl)ccc3n2Cc2cc(F)cc(F)c2)C1 (centres unmarked) [Example 29] | 0.0024 µM | 0.0027 µM |
| Cc1ccc2c(c1)c1c(n2Cc2cccc(F)c2)CCC(NC(=O)C(C)C)C1 (centres unmarked) [Example 47] | 0.0121 µM | 0.0241 µM |

Reference: patent US7935722B2 (Eli Lilly and Company, priority 2005, dated 2011)
